Data as given in US20160122307A1, “PERHYDROQUINOXALINE DERIVATIVES” (DR. AUGUST WOLFF GMBH & CO. KG ARZNEIMITTEL, priority 2013, published 2016).

By UniProt entry, the sequences of proteins in these tests, tags left out. Where a name states a change or a piece, a line headed by the entry shows the natural chain unless it says otherwise.
UniProt P41145: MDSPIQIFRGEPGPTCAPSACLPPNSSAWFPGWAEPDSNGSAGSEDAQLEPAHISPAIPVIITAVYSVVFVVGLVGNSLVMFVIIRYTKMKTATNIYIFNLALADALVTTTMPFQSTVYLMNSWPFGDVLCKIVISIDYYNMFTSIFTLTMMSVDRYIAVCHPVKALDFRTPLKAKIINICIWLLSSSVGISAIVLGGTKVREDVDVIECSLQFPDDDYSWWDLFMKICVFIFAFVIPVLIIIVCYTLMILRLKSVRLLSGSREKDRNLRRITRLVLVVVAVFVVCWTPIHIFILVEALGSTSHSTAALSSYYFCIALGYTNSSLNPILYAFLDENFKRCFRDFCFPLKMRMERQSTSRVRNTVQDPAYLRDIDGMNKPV

Legend:
Human opiate κ receptors = Human opiate κ receptors (Homo sapiens, UniProt P41145); assay: κ opioid receptor functional assay, [35S]GTPγS binding (assay C); assay type: biochemical; conditions: for EC50: read-out: EC50 (nM) [35S]GTPγS binding; for % activation functional assay at 1 μM: [35S]GTPγS binding relative to the 10 μM U-69593 response; for pEC50: read-out: GTPγS EC50, κ opioid functional activity, [35S]GTPγS binding, human recombinant κ receptors in HEK-293 membranes, EC50 grouped in three classes
[1] = tested on: chronic oxazolone-induced ear inflammation; assay: In vivo model of chronic oxazolone-induced ear inflammation (assay E); parameters: species or system mice; conditions: RT-qPCR, ears
[2] = Table 4, reference compounds from WO2009/080745

Row | Structure (SMILES) | activation (% of control) at 1 μM (Human opiate κ receptors; [2]) | EC50 (Human opiate κ receptors; [2]) [nM] | % activation functional assay at 1 μM (Human opiate κ receptors) [%] | pEC50 (Human opiate κ receptors) | further results
1 | CC(=O)N1CCN(C(=O)Cc2ccc(Cl)c(Cl)c2)C2C(N3CCCC3)CCCC21 (centres unmarked) | 78 % of control | 330 |  |  | 
2 | CN1CCN(C(=O)Cc2ccc(Cl)c(Cl)c2)C2C1CCCC2N1CCC(O)C1 (centres unmarked) | 99 % of control | 79 |  |  | 
3 | CN1CCN(C(=O)Cc2ccc(Cl)c(Cl)c2)C2C1CCCC2N1CCCC1 (centres unmarked) | 107 % of control | 20 |  |  | 
4 | COC(=O)N1CCN(C(=O)Cc2ccc(Cl)c(Cl)c2)[C@@H]2[C@@H](N3CCCC3)CCC[C@@H]21 |  |  |  |  | mRNA expression of IL-6, TNF-α, CD117, FcεRI, myeloperoxidase, CD26E, ICAM-1 [1]: down-regulated
5 | O=C(Cc1ccc(Cl)c(Cl)c1)N1CCNC2CCCC(N3CCC(O)C3)C21 (centres unmarked) | 108 % of control | 35 |  |  | 
6 | O=C(Cc1ccc(Cl)c(Cl)c1)N1CCNC2CCCC(N3CCCC3)C21 (centres unmarked) | 114 % of control | 33 |  |  | 
7 | CC(=O)N1CCN(C(=O)Cc2ccc(Cl)c(Cl)c2)C2C(N3CCCC3)CCCC21 (racemic) |  |  | 101 | > 8.00 | activation (% of control) at 1 μM (Human opiate κ receptors; Table 5, selected examples): 101 % of control; EC50 (Human opiate κ receptors; Table 5, selected examples): 3.96 nM
8 | CN1CCN(C(=O)Cc2ccc(Cl)c(Cl)c2)C2C1CCCC2N1CCCC1 (racemic) |  |  | 107 | > 8.00 | activation (% of control) at 1 μM (Human opiate κ receptors; Table 5, selected examples): 107 % of control; EC50 (Human opiate κ receptors; Table 5, selected examples): 2.46 nM
9 | O=C(Cc1ccc(Cl)c(Cl)c1)N1CCN[C@H]2CCC[C@H](N3CCCC3)[C@H]21 (racemic) |  |  | 102 | > 8.00 | activation (% of control) at 1 μM (Human opiate κ receptors; Table 5, selected examples): 102 % of control; EC50 (Human opiate κ receptors; Table 5, selected examples): 1.64 nM
10 | O=CN1CCN(C(=O)Cc2ccc(Cl)c(Cl)c2)C2C1CCCC2N1CCCC1 (racemic) |  |  | 108 | 7.00 to 8.00 | 
11 | O=C(C=Cc1ccoc1)N1CCN(C(=O)Cc2ccc(Cl)c(Cl)c2)C2C(N3CCCC3)CCCC21 (racemic) [Example 79] |  |  |  | 7.00 to 8.00 | 

pEC50: −log10 of the molar value. Where two headings read alike, the source gives them in different places.
